Test results from patent publication US9561197B2 (Horizon Therapeutics, LLC, priority 2012, dated 2017).
Read-outs that look alike come from different tables or passages of the source.

Experiments:
[1] = Patient 2
[2] = adult UCD, Study HPN-100-006; between maximum and minimum concentration
[3] = NaPBA 450 mg/Kg/day for one week
[4] = Patient 4, NaPBA 6 g/day for one week

PAA [1, 3]: 280 µg/L
PAGN [1, 3]: 150 µg/L
clinical presentation [1, 3]: eating well and was no longer somnolent
PAA levels ([1]; NaPBA 600 mg/kg per day): 530 µg/L
PAA:PAGN ratio ([1]; NaPBA 600 mg/kg per day): > 2.5
PAGN levels ([1]; NaPBA 600 mg/kg per day): 178 µg/L
clinical presentation ([1]; NaPBA 600 mg/kg per day): poor feeding and somnolence
fluctuation index for PAA over a 24 hour period [2]: 2150%
PAA (Patient 4 (person one), NaPBA 4 g per day): 110 µg/L
PAA:PAGN ratio (Patient 4, NaPBA 4 g per day): 1.2
PAGN (Patient 4, NaPBA 4 g per day): 85 µg/L
PAA [4]: 155 µg/L
PAA:PAGN ratio [4]: 1.4
PAGN [4]: 110 µg/L
Substance: sodium phenylbutyrate [NaPBA]
